Experimental data taken from patent US10633338B2, “Binding Function 3 (BF3) site compounds as therapeutics and methods for their use” (THE UNIVERSITY OF BRITISH COLUMBIA, priority 2014, dated 2020).

Amino acid sequences for entries named in this document (tags omitted).
UniProt P10275, whole entry T878A: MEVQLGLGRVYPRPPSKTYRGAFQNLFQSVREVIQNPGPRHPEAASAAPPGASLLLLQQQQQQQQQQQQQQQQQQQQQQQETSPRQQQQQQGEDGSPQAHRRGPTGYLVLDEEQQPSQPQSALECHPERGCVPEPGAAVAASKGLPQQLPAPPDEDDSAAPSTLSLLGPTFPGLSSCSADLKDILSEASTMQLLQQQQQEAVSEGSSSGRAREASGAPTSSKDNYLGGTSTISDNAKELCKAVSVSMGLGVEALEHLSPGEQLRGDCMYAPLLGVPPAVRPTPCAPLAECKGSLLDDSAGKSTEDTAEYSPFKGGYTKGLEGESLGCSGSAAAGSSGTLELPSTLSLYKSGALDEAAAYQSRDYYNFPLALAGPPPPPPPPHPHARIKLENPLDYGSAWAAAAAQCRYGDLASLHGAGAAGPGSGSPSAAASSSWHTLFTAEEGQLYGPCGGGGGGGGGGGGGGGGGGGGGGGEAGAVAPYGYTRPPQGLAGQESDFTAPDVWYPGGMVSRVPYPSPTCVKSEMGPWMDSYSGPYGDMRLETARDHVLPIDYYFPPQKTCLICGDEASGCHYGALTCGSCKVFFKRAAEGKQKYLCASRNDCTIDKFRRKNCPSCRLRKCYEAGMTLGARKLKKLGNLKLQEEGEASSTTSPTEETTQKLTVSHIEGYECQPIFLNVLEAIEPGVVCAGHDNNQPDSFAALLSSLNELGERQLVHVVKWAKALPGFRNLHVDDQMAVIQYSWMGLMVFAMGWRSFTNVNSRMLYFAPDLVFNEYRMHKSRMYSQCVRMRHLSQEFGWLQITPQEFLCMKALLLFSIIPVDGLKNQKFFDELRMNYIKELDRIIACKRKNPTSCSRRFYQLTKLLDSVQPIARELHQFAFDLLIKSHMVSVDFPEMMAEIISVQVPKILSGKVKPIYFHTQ

Molecular target: T1, androgen receptor (AR) (Homo sapiens, UniProt P10275, T878A)
T1 construct: stably transfected eGFP-expressing LNCaP human prostate cancer cells (LN-ARR2PB-eGFP) containing an androgen responsive probasin-derived promoter; endogenous in cells; host or cells: LNCaP (LN-ARR2PB-eGFP)
Test: eGFP cellular AR transcription assay
Type: cell-based
Description: After 5 days, the cells were plated into a 96-well plate (35,000 cells/well) with 0.1 nM of the synthetic androgen R1881 and increasing concentrations (0-100 μM) of compound.
After 5 days, the cells were plated into a 96-well plate (35,000 cells/well) with 0.1 nM R1881 and increasing concentrations (0-100 μM) of compound.
In this assay, the expression of eGFP is under the control of an androgen responsive probasin-derived promoter and can quantify AR transcriptional activity.

Fc1cc(Cl)c2[nH]cc(-c3ccc4ccccc4n3)c2c1 [Compound 13624]
IC50: 100 nM
